Reference: patent publication US5407823A, “Polypeptides having a dopaminergic receptor activity, nucleic acids coding for these polypeptides and use of these polypeptides for the screening of substances active on these polypeptides” (priority 1990, dated 1995)

Chains of the proteins cited; added tags and fusions are not shown.
UniProt P61169, whole entry: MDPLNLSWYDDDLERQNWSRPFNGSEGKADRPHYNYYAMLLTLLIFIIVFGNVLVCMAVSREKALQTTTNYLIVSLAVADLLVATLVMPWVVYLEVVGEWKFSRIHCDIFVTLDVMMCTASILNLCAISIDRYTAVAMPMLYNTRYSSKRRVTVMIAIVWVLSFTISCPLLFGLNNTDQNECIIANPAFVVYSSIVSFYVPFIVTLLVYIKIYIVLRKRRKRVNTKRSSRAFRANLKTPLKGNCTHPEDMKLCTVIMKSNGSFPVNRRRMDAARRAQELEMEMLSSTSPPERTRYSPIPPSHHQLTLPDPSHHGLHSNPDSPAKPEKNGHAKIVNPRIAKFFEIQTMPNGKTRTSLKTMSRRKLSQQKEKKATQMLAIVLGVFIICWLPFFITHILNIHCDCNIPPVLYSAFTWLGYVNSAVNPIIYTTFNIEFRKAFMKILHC
UniProt P19020, whole entry: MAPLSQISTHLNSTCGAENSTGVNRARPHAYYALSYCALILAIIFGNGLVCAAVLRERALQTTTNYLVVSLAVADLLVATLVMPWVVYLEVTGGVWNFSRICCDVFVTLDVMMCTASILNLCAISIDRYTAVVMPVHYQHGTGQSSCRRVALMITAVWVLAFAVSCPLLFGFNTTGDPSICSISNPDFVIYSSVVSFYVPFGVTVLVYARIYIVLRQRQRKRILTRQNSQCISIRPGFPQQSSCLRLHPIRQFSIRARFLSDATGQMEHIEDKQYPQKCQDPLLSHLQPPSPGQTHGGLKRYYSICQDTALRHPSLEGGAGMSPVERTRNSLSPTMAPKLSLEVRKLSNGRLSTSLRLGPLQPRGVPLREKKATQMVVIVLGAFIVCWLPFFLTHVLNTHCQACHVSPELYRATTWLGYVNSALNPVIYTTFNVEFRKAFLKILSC

Assays:
[1] = molecular target: D-2 receptor expressed in CHO cells (Rattus norvegicus, UniProt P61169); experiment: Inhibition of 125I-iodosulpride binding to membranes of transfected CHO cells (D-2); conditions: read-out: Ki Value D-2 receptor
[2] = molecular target: T1, D-3 receptor expressed in CHO cells (Rattus norvegicus, UniProt P19020); experiment: Inhibition of 125I-iodosulpride binding to membranes of transfected CHO cells (D-3); conditions: competition with 125I-iodosulpride, CHO cell membranes; mean ± standard deviation, 2-3 experiments
T1 construct: expressed in transfected cells

| SMILES | Ki [1] | Ki [2] |
| --- | --- | --- |
| CN1CCc2cccc3c2[C@H]1Cc1ccc(O)c(O)c1-3 [Apomorphine] | 24 ± 2 nM | – |
| CCN1CCCC1CNC(=O)c1cc(S(=O)(=O)CC)c(N)cc1OC (centres unmarked) [Anisulpride] | – | 3.8 ± 0.3 nM |
